Drawing on ChEMBL document CHEMBL4814010, “The development of highly potent and selective small molecule correctors of Z α1-antitrypsin misfolding” (Bioorg Med Chem Lett, 2021), this text covers Selectivity ratio and fold change (FC) for one molecule.

Structures are written as SMILES.

One assay is filed under the species Homo sapiens. The assay is described as follows: Selectivity for Z variant alpha1-antitrypsin (unknown origin) over M variant alpha1-antitrypsin (unknown origin).
The next assay concerns CHO. The assay can be described thus: Corrector activity of Z variant alpha1-antitrypsin misfolding (unknown origin) expressed in CHO cells assessed as inhibition of Z variant alpha1-antitrypsin polymerisation by measuring increase in Z alpha1 antitrypsin secretion relative to control. The class given is cell-based. To be noted: Homo sapiens.

Take `CCC[C@@H](NC(=O)c1cccc2c1CC(=O)N2)[C@@H](O)c1cccc(F)c1C`: the Selectivity ratio in the assay filed under Homo sapiens is 50. Also, in the assay on CHO, the fold change (FC) turned out to be 3.
